The values that follow come from patent US9174992B2, “Heterobicyclic compounds” (Amgen Inc., priority 2012, dated 2015).

Protein sequences, listed by entry. Tags and fused reporters are not part of them.
UniProt Q9Y233, whole entry: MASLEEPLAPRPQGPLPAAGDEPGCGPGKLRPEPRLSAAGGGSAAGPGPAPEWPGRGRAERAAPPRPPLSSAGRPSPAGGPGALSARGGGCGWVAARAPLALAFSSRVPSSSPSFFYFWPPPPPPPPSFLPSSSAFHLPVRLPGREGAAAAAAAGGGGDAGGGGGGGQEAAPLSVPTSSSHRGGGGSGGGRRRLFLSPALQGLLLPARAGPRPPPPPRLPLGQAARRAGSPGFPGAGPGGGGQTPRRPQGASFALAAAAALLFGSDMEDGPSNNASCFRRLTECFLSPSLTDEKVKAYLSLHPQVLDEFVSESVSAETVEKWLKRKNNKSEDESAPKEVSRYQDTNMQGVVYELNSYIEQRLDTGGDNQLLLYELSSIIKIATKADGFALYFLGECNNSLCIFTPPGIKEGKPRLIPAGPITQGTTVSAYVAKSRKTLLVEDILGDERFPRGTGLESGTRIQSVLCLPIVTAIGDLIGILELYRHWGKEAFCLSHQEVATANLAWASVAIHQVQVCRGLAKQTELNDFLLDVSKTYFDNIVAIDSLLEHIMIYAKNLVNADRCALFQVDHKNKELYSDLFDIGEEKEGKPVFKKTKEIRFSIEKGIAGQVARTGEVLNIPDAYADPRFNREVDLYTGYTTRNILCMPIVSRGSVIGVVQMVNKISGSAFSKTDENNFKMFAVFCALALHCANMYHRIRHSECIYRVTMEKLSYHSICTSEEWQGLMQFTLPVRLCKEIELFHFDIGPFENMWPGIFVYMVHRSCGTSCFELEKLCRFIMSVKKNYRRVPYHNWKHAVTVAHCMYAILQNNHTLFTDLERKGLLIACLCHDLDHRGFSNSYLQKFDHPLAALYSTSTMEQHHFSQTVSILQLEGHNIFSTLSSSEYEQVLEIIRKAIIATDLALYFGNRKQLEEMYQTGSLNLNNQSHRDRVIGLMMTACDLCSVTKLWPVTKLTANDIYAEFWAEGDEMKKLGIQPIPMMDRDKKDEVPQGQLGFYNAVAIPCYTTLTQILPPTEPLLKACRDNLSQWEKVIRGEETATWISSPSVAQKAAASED

This assay deals with PDE10A (UniProt Q9Y233). In words: PDE10 enzyme inhibition, IMAP TR-FRET assay (Example A, MPDE10A7 Enzyme Activity and Inhibition). The assay is classed as biochemical. The conditions noted are these: approximate IC50 value, Table 10.

The structures appear in SMILES notation.

Regarding `O=C(O)c1cnc(N[C@H]2C[C@H](n3c(=O)n(C4CC4)c4nccnc43)C2)s1` (relative stereo), the IC50 worked out at 8.48 µM. `COC(=O)c1cnc(N[C@H]2C[C@H](n3c(=O)n(C4CC4)c4nccnc43)C2)s1` (relative stereo) registered an IC50 of 0.193 µM.
